Consider one compound from patent US10919841B2, “Monoamine reuptake inhibitors” (Research Triangle Institute, priority 2009, dated 2021).

Amino acid sequences for entries named in this document (tags omitted).
UniProt P23975, whole entry: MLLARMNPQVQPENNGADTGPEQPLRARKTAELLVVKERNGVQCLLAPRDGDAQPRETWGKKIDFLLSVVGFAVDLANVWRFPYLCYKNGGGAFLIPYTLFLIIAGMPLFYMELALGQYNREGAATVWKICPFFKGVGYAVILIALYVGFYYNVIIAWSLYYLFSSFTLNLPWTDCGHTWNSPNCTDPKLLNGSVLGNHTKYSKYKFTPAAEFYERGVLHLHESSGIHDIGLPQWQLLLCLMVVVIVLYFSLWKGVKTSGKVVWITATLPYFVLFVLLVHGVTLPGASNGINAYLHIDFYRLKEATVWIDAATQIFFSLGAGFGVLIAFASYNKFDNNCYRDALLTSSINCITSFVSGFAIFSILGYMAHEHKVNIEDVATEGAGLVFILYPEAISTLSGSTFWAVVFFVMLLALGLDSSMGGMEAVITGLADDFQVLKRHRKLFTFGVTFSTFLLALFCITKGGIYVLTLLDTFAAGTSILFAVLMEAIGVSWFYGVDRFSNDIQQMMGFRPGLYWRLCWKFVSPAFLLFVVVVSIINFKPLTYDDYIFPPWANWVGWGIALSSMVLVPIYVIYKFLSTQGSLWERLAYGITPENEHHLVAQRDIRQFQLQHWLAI

Assay [1] concerns the target T1, (h)NET (Homo sapiens, UniProt P23975). Kind of assay: block of [3H]norepinephrine reuptake in HEK-(h)NET cells.
In assay [2] the target is T1, (h)NET.

As a reminder, the IC50 is the concentration at which inhibition is half-maximal. The Ki is the equilibrium dissociation constant of an inhibitor or competing ligand from its target. The low end stands for higher affinity, the high end for lower affinity. Compound `CC(NC(C)(C)C)C(=O)c1cccc(Cl)c1` (racemic) [Compound 2a, (±)-2-tert-butylamino-3′-chloropropiophenone, reference compound] returned an IC50 in assay [1] of 0.443 µM. In addition, affinity in assay [2] was put at a Ki of 6.97 µM.
